# According to PubChem BioAssay AID1422 (Emory University Molecular Libraries Screening Center, 2008):
# By UniProt entry, the sequences of proteins in these tests, tags left out. Where a name states a change or a piece, a line headed by the entry shows the natural chain unless it says otherwise.
# UniProt P43116: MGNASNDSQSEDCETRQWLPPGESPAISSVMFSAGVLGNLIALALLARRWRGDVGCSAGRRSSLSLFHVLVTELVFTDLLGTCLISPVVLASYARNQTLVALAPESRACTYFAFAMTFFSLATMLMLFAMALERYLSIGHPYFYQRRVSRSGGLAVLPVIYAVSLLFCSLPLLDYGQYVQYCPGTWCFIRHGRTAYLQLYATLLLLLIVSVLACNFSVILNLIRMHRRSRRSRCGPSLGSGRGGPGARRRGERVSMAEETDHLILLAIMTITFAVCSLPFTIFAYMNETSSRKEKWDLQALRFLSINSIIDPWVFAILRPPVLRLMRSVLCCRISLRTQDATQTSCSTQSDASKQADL
# The entries are a selection whose mix differs from that of the whole data set. The source made the active and inactive calls.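 Rule for the calls: active = percent inhibition above 40 after rounding to a whole number; inactive = the rest.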
# Biological target: Prostaglandin E2 receptor EP2 subtype (Homo sapiens) (UniProt P43116)
# Assay: blockers of PGE2-driven EP2 cAMP signalling – TR-FRET cAMP, C6 glioma cells, primary screen (AID 1422);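 note: rat C6 glioma host cells with rolipram phosphodiesterase inhibitor present; the protocol text gives 20 µM as final concentration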
# Details: C6 glioma cells expressing human EP2, cAMP TR-FRET; at 25 µM; active compounds read high; cells stimulated with saturating PGE2
row,SMILES,inhibition
1,CCOC(=O)Nc1ccc([As](=O)(O)O)c(O)c1,inactive: 9.02%
2,CCC(C)N(CC(C)C)C(=S)SC(NC(C)=O)C(Cl)(Cl)Cl (centres undefined),inactive: 8.38%
3,CCOC(=O)c1ccc(NC(=O)C(C)(CCl)SC)cc1 (centres undefined),inactive: 7.09%
4,O=C(O)[C@@H](O)c1ccc([As](=O)(O)O)cc1,inactive: 9.82%
5,COP1(=S)c2c(C)nn(CCC#N)c2N=C(c2ccc(F)cc2)N1C (centres undefined),inactive: 7.22%
6,COc1ccc(N/C(=N/P(=O)(N2CCOCC2)N2CCOCC2)N2CCOCC2)cc1,inactive: 6.53%
7,COc1cc(I)ccc1[As](=O)(O)O,inactive: 4.28%
8,NC(=O)Nc1cc([As](=O)(O)O)cc(I)c1O,inactive: 37.5%
9,COc1ccc2nc(NP(=O)(c3ccccc3)c3ccccc3)sc2c1,inactive: 2.69%
10,Cc1cc(=O)[nH]c(N[N+](=O)[O-])n1,inactive: 9.42%
11,O=C(OC1CN2CCC1CC2)C12CC3CC(CC(C3)C1)C2 (centres undefined),inactive: 9.52%
12,Cc1c2c(nc3ccccc13)SC(C(Cl)Cl)C2 (centres undefined),inactive: 8.03%
13,Cc1ccc(-c2nnc3n2CC(CI)S3)cc1 (centres undefined),inactive: 25.4%
14,O=[N+]([O-])c1cc([N+](=O)[O-])c(-c2ccn[nH]2)s1,inactive: 6.6%
15,CCN(CC)C(=S)SC(NC=O)C(Cl)(Cl)Cl (centres undefined),inactive: 6.63%
16,CC(C)NC(=O)NP(=O)(Oc1ccccc1)Oc1ccccc1,inactive: 10%
17,CC(C)c1ccc(OP(=O)(Nc2ccccn2)Oc2ccccc2F)cc1 (centres undefined),inactive: 10.6%
18,[N-]=[N+]=NCC(N)=O,inactive: 15.4%
19,ClCCSc1nnc(-c2cccnc2)o1,inactive: 10.6%
20,O=[As]c1ccc(S(=O)(=O)NCCO)cc1 (centres undefined),inactive: 5.22%
21,Cc1ccc2nc3c(c(C)c2c1)CC(C(Cl)Cl)S3 (centres undefined),inactive: 10.1%
22,Cc1ccc(OP(=O)(Nc2ccc([N+](=O)[O-])cn2)Oc2ccc(C)cc2)cc1,inactive: 13.9%
23,C[As](=O)(O)c1cccc(C(=O)O)c1,inactive: 15.7%
24,O=[As](O)(c1ccc(O)cc1)c1ccccc1O,inactive: -0.7%
